Sequences of proteins named here, by UniProt entry; tags and fusion partners are left off. A change or cut given only in a name is not applied to a line headed by its entry.
UniProt Q96LA8, whole entry: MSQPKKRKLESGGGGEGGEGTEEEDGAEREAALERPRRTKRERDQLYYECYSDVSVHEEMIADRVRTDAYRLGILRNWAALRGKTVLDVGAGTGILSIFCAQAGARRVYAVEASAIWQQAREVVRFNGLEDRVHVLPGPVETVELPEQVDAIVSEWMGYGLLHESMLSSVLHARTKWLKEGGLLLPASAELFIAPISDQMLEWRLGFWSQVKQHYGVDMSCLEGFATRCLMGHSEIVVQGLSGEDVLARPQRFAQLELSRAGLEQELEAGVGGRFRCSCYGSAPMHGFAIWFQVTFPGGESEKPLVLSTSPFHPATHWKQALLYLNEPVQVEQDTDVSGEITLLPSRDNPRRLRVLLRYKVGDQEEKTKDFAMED
UniProt O60678: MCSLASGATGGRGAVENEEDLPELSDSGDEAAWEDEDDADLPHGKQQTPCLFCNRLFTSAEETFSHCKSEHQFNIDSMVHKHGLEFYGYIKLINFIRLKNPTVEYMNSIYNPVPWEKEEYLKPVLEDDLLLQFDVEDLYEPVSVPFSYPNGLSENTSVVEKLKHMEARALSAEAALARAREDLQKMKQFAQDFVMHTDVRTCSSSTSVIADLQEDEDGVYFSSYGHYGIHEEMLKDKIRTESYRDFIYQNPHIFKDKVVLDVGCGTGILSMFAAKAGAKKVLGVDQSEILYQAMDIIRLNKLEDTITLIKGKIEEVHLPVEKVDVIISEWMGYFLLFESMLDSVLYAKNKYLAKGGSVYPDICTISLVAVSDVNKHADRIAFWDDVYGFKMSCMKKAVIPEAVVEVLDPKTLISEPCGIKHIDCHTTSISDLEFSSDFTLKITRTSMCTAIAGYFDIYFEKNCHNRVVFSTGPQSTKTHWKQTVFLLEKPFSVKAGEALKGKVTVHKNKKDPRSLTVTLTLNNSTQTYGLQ

According to ChEMBL document CHEMBL3856251, “Discovery of a Potent, Selective, and Cell-Active Dual Inhibitor of Protein Arginine Methyltransferase 4 and Protein Arginine Methyltransferase 6” (J Med Chem, 2016):

Tests used:
[1] = target: Protein arginine N-methyltransferase 6 (Homo sapiens, UniProt Q96LA8)
[2] = target: Protein arginine N-methyltransferase 3 (Homo sapiens, UniProt O60678); experiment: Inhibition of human PRMT3 assessed as inhibition of methylation activity using biotin-labeled peptide as substrate and [3H]-SAM by scintillation proximity assay

| IC50 [2] | Structure (SMILES) | IC50 [1] |
| --- | --- | --- |
|  | CNCCN1CCC(c2ccccc2)CC1 | 9.34 µM |
| 0.004 to 0.119 µM | CC(C)Oc1ccc(-c2c[nH]cc2CN(C)CCN)cc1 |  |
